The values below are quoted from earlier work in PMC5995566.

This series deals with Annexin I peptide (Homo sapiens) (UniProt P04083). The conditions noted are these: cited from earlier work.

Take S100A6 (from UniProt P06703): the Kd was 13 µM.
